Results reported in PMC11360484.

Target: recombinant ecarin (rEcarin), SVMP PIII prothrombin activator from Echis pyramidum leakeyi (Echis pyramidum leakeyi)

## recombinantly expressed human prothrombin (PT) (from UniProt P00734 44-622) (natural protein)
  KM of PT activation catalysed by rEcarin (Michaelis-Menten; rEcarin 50 nM, PT 0.2-3 uM, S-2238 0.5 mM, PBS pH 7.4, 37 C; rEcarin not saturated): 4 µM
